Consider 70 compounds from PubChem BioAssay AID623877 (Johns Hopkins Ion Channel Center, 2012).

By UniProt entry, the sequences of proteins in these tests, tags left out.
UniProt Q8BHY3, whole entry: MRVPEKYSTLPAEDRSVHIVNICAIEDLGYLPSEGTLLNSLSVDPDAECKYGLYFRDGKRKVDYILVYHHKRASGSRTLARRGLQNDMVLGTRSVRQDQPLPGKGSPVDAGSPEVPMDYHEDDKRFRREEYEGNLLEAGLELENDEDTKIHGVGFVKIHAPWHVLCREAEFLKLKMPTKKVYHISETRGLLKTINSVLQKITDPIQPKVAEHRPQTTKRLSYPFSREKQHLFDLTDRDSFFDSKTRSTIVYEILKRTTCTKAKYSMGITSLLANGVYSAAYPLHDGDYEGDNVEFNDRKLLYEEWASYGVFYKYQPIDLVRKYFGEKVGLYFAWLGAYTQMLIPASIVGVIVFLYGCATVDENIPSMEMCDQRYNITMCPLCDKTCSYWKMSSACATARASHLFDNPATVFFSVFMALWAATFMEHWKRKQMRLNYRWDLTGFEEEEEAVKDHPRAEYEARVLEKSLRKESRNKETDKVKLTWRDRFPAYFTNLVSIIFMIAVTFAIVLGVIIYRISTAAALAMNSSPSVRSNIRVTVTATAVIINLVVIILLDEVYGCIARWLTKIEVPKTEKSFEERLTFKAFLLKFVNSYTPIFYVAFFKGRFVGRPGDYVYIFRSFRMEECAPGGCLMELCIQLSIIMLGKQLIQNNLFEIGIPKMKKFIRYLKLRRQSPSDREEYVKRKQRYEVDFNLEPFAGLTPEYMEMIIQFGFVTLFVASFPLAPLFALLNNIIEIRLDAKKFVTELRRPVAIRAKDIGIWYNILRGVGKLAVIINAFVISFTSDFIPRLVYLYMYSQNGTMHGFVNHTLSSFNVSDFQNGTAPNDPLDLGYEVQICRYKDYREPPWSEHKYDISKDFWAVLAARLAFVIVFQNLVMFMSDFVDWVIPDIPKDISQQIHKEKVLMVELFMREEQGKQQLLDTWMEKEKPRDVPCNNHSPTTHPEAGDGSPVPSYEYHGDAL

The list shows a part of the results, in another mix than the full data. Some salts or complexes appear as unconnected parts, following the source record. The source made the active and inactive calls.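 How the source made its calls: active means fluorescence-ratio B-score plate-corrected deviation score at least 3 library SD below zero, with starting fluorescence score within 5 deviations; inactive means the rest.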

This test addresses Anoctamin-1 (Mus musculus) (UniProt Q8BHY3). The experiment in a line: TMEM16A chloride channel activators or potentiators, primary screen, cell-based, HTS (AID 623877). Conditions: HEK293 TMEM16A/YFP-H148Q/I152L, iodide quench fluorescence, at 10 µM.
Take `CN(C)CCOC(=O)C(O)(c1ccccc1)C1CCCCC1` (stereo not given): the result was inactive.

As to `O=P(Nc1nc2ccccc2s1)(c1ccccc1)c1ccccc1`, the result was inactive.

`C[C@H]1OP(=O)(Oc2ccccc2)[C@H](O)[C@H](O)[C@H]1N=[N+]=[N-]` (stereo not given in full): the result was inactive.

On to `COc1ccc(NP(C)(=O)Oc2ccccc2OC)cc1` (stereo not given), for which the outcome was inactive.

For the compound `COc1ccc(OP(C)(=O)Nc2cccc(Br)c2)cc1` (stereo not given), the result was inactive.

As for `COc1ccc(N)c([N+](=O)[O-])c1[N+](=O)[O-]`, the outcome was inactive.

As to `O=P(Nc1ccccn1)(c1ccc(Br)cc1)c1ccc(Br)cc1`, the outcome was inactive.

As to `CN(C)C1(CNC(=O)c2ccc(Cl)c(S(N)(=O)=O)c2)CCCCC1`, the result was inactive.

`Cc1c(C(c2ccc3c(c2)OCO3)c2c(C)n(C)n(-c3ccccc3)c2=O)c(=O)n(-c2ccccc2)n1C.O=[N+]([O-])c1cc([N+](=O)[O-])c(O)c([N+](=O)[O-])c1`: the result was inactive.

With `Nc1ccc([As](=O)(O)c2ccc([N+](=O)[O-])cc2)cc1`, the result was inactive.

Consider `C(Cc1nn[nH]n1)Cc1nn[nH]n1`, for which the result was inactive.

As to `O=C(OC1CN2CCC1CC2)c1cccc(Cl)c1` (stereo not given), the outcome was inactive.

As for `O=[N+]([O-])c1ccc(O)c(/C=N/Nc2ccc([N+](=O)[O-])cc2[N+](=O)[O-])c1`, the outcome was inactive.

For `O=[N+]([O-])c1ncn(CCn2cnc([N+](=O)[O-])n2)n1`, the outcome was inactive.

Consider `O=[N+]([O-])c1ccc(OP2(=O)COCCO2)cc1` (stereo not given), for which the outcome was inactive.

On to `CC(=O)NC(SC(=S)N(C)C)C(Cl)(Cl)Cl` (stereo not given), for which the outcome was inactive.

As to `O=[As](O)(c1ccccc1)c1ccc(O)cc1`, the result was inactive.

As to `O=[N+]([O-])c1cc([N+](=O)[O-])c(NCC2CCS(=O)(=O)C2)c([N+](=O)[O-])c1` (stereo not given), the outcome was inactive.

Take `Cc1cc(-c2cccc3ccccc23)c(C)cn1.O=[N+]([O-])c1cc([N+](=O)[O-])c(O)c([N+](=O)[O-])c1`: the result was inactive.

`CCOP(C)(=S)SCC(=O)NC(C)(CC)C(=O)O` (stereo not given): the result was inactive.

With `c1nnnn1CCn1cnnn1`, the result was inactive.

With `CP(=O)(Nc1ccc(SC(F)(F)F)cc1)Oc1ccc(F)cc1` (stereo not given), the result was inactive.

`CC(C)C(=O)NC(Sc1ccccc1)C(Cl)(Cl)Cl` (stereo not given): the result was inactive.

For `O=P(Nc1nccs1)(c1ccccc1)c1ccccc1`, the outcome was inactive.

`Cc1ccccc1NP(C)(=O)Nc1ccccc1C`: the outcome was inactive.

In the case of `CP(=O)(Nc1ccc2c(c1)OCCO2)Oc1ccccc1` (stereo not given), the outcome was inactive.

Regarding `CCc1cc(O)c([N+](=O)[O-])c(C)c1[N+](=O)[O-]`, the outcome was inactive.

Turning to `CP(=O)(Nc1ccccc1F)Oc1ccccc1` (stereo not given), the result was inactive.

Consider `CC(C)(C)C(=O)NC(Sc1ccccc1)C(Cl)(Cl)Cl` (stereo not given), for which the result was inactive.

Consider `CC(C)c1ccc(OP(C)(=O)Nc2ccc(SC(F)(F)F)cc2)cc1` (stereo not given), for which the outcome was inactive.

For the compound `O=P1(Nc2nc3ccc(Cl)cc3s2)COc2ccccc2O1` (stereo not given), the outcome was inactive.

For `CCOc1ccc(C2=NCC(CBr)S2)cc1` (stereo not given), the result was inactive.

Turning to `COc1ccc2c(c1O)-c1c(O)c(OC)cc3c1[C@H](C2)[N+](C)(C)CC3.O=[N+]([O-])c1cc([N+](=O)[O-])c([O-])c([N+](=O)[O-])c1[O-]`, the outcome was inactive.

On to `CC(=O)Nc1ccc([As](=O)(O)O)c(O)c1`, for which the outcome was inactive.

Turning to `CC(=O)Nc1ccc(Oc2c([N+](=O)[O-])cc([N+](=O)[O-])cc2[N+](=O)[O-])cc1`, the result was inactive.

`N#C/C(=C\c1ccc(N(CCBr)CCBr)cc1)C(N)=O`: the result was inactive.

For the compound `CC(=O)c1ccc(N2CC2c2ccncc2)cc1` (stereo not given), the outcome was inactive.

`COC(=O)C1(C)COP(=O)(NCc2ccccc2)OC1` (stereo not given): the outcome was inactive.

In the case of `O=C(OC1CN2CCC1CC2)c1ccc([N+](=O)[O-])cc1` (stereo not given), the outcome was inactive.

Turning to `Cc1ccccc1CN(C)C(=O)COC(=O)C(O)(c1ccccc1)c1ccccc1`, the result was inactive.

Consider `O=C(OCCN1CCN(CCOCc2ccccc2)CC1)C(O)(c1ccccc1)c1ccccc1`, for which the outcome was inactive.

Regarding `C[C@@H]1C=CCP(=O)(Oc2ccccc2)O1` (stereo not given in full), the result was inactive.

Regarding `C[C@H]1OP(=O)(Oc2ccccc2)C[C@@H]2O[C@@H]21` (stereo not given in full), the result was inactive.

Turning to `O=P1(N(CCCl)CCCl)OCCC2CCCCN21` (stereo not given), the result was inactive.

Consider `CCOC(=O)c1ccc(NP(C)(=O)Oc2ccc(F)cc2)cc1` (stereo not given), for which the result was inactive.

Consider `COc1ccc(OP(C)(=O)Nc2ccc(SC(F)(F)F)cc2)cc1` (stereo not given), for which the result was inactive.

With `CCNC(=S)/N=C(\N)N[N+](=O)[O-]`, the outcome was inactive.

Turning to `O=C(NC1CCS(=O)(=O)C1)NP(=S)(Oc1ccccc1)Oc1ccccc1` (stereo not given), the outcome was inactive.

In the case of `c1ccc(-c2nn[nH]n2)c(-c2nn[nH]n2)c1`, the result was inactive.

As for `Cc1ccc(NP(=O)(Oc2cccc(C)c2)Oc2cccc(C)c2)nc1`, the outcome was inactive.

As to `CP(=O)(Nc1ccccc1)Oc1ccc(F)cc1` (stereo not given), the result was inactive.

With `Cc1ccccc1OP(=O)(Nc1ccccn1)Oc1ccccc1C`, the outcome was inactive.

As to `CC(NC(=O)COC(=O)C(O)(c1ccccc1)c1ccccc1)c1ccccc1` (stereo not given), the result was inactive.

As for `CN(C)C(=O)Oc1noc2ccccc12`, the outcome was inactive.

In the case of `O=[N+]([O-])c1cc([N+](=O)[O-])c(OC2CCCCC2O)c([N+](=O)[O-])c1` (stereo not given), the result was inactive.

With `CCCCCOc1ccc(NP(C)(=O)Oc2ccc(Cl)cc2Cl)cc1` (stereo not given), the outcome was inactive.

Turning to `O=c1c2cc([N+](=O)[O-])ccc2[nH]c2c([N+](=O)[O-])cc([N+](=O)[O-])cc12`, the outcome was inactive.

`Cc1c([N+](=O)[O-])cc([N+](=O)[O-])c(Br)c1[N+](=O)[O-]`: the result was inactive.

As to `COC(=O)c1cc2c(s1)N=C(c1ccccc1)N(C)P2(=O)N1CCOCC1` (stereo not given), the result was inactive.

Regarding `Cc1ccc(OP(=O)(Nc2ccccn2)Oc2ccc(C)cc2)cc1`, the outcome was inactive.

As to `CC(=O)NC(SC(=S)N(CC(C)C)CC(C)C)C(Cl)(Cl)Cl` (stereo not given), the outcome was inactive.

With `O=C(OC1CN2CCC1CC2)c1ccccc1` (stereo not given), the result was inactive.

As to `CCN(CC)CCCOC(=O)C(O)(c1ccccc1)C1CCCCC1` (stereo not given), the outcome was inactive.

As for `CCC(=O)N1C2C3N(C(=O)CC)C1C1N(C(=O)CC)C(C(N1C(=O)CC)N3C(=O)CC)N2C(=O)CC`, the result was inactive.

Take `CCOP(=O)(Nc1ccccc1)OCC`: the result was inactive.

In the case of `Cc1cc(SC(NC(=O)c2ccc(F)cc2)C(Cl)(Cl)Cl)ncn1` (stereo not given), the result was inactive.

Turning to `Cc1ccc(NP(=O)(Oc2ccccc2F)Oc2ccccc2F)nc1`, the outcome was inactive.

For `CN(C(=O)Cc1ccc(Cl)c(Cl)c1)[C@H]1CCCC[C@@H]1N1CCCC1`, the result was inactive.

Turning to `COc1ccccc1OP(C)(=O)Nc1ccc(C)c(C)c1` (stereo not given), the result was inactive.

In the case of `COc1ccc(OP(C)(=O)Nc2ccccc2Br)cc1` (stereo not given), the outcome was inactive.
